The values that follow come from PubChem BioAssay AID488810 (Sanford-Burnham Center for Chemical Genomics, 2010).

Activity calls are given as the source filed them.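 How the source made its calls: active means compounds with IC50 below 20 µM; inactive means the rest.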

This test addresses Type-1 angiotensin II receptor (Homo sapiens) (UniProt P30556). As to the kind of experiment: AT1 receptor antagonists, beta-arrestin recruitment, SAR follow-up, selectivity assay for APJ antagonist project, cell-based, CHO-K1 PathHunter, luminescence (AID 488810).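 Further: agonist challenge with angiotensin II at 50 nM final near its EC80.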 To be noted: CHO-K1 AGTR1 PathHunter beta-arrestin, antagonist mode. In general terms: Recruitment of arrestin is a read-out of receptor activation apart from second messengers.

As for `Cc1ccnc(SCc2cc(=O)c(OC(=O)c3ccc(Cl)c([N+](=O)[O-])c3)co2)n1`, the IC50 was inactive: > 79 µM.

Usually IC50 stands for the concentration that gives 50% inhibition.
